## Measured affinities in a library of Ab-14 light chain variants

Reference: Li et al. 2023, doi:10.1038/s41467-023-39022-2. File: FLAb, binding data.

Target peptide (SARS-CoV-2 spike, HR2 region): PDVDLGDISGINAS

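The starting antibody came from a phage panning campaign against this peptide. These sequences belong to a second round, designed from the earlier measurements on random variants of the parent. Several design methods are mixed in this list. Affinity was read by AlphaSeq, a pooled yeast mating assay with surface-displayed partners. The frequency of each diploid, read from paired DNA barcodes, reflects how well the two displayed proteins bind. A regression on co-assayed BCL2-family reference pairs converts the normalised counts of each replicate to an apparent Kd. Each pool was mated in six replicate cultures.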

Ab-14 is the parent antibody, in scFv form: VH, then a (GGGGS)3 linker, then VL. The heavy chain is unchanged in all variants.
VH: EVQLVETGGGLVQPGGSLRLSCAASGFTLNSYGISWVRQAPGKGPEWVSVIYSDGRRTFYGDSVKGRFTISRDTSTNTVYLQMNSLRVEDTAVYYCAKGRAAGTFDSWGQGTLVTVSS
VL: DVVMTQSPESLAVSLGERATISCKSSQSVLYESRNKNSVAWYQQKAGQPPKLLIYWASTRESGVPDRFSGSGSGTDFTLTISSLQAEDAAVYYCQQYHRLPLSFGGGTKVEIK

Each variant is given by its three light chain CDRs, as the data file delimits them; those of the parent are KSSQSVLYESRNKNSVA, WASTRES, QQYHRLPLS. Numbers give log10(Kd / nM), so 0 is 1 nM and 3 is 1 µM. Smaller is tighter. Replicates are averaged; those with no signal do not enter the mean. Where no diploid with the target was found in any replicate, the entry reads "not detected": below detection, most likely a poor binder, though not proof of it. Of ten entries with the parent sequence, four were seen in most replicates (averages 0.34 to 2.37), three in one and three in none, so single entries are noisy. Nonspecific signal, from three strains lacking the peptide, appeared in 4% of pairings of all light chain designs, centred on 2.64 (5% of these signals below 1.59); values are not corrected for it. For each scFv, signals with the empty controls are counted beside the result. The authors' rule: three or more of the six replicates give a measured affinity, fewer mean a poor binder. The range of this assay differs from that of the first round, and the authors advise against merging the two.

CDR-L1	CDR-L2	CDR-L3	mean log10 Kd (nM)	detected	control signals
QLAVERGQEWKAGAAIA	GNTEKLH	QQYAMLPLS	1.50	6/6	0/18
KSSQSVLNESRNSNSVA	DASTRES	QQYHRLPLS	0.54	6/6	1/18
KLTMITGLEKVSKNQVA	EMETREK	QQYNRLPLS	0.17	6/6	2/18
KSSQSQLYESRNKNSVA	WASTRES	QFYHRLPLS	2.04	1/6	0/18
TLTQVTMVESYNKNSVA	QASTREE	QDYHRLPLS	0.25	6/6	0/18
KVSQSHLYESRNKNSVA	NASTRLS	QQYHRLPLS	0.24	6/6	2/18
KFSQSGLYESRTKNSVA	NASTRES	QWYHRLPLS	2.67	4/6	1/18
KFMQSVLYESRNKNSVA	NASTRES	QQYHRLPLS	0.24	6/6	0/18
MISQLYNFGTFAINSVA	QASTRTE	QQYDRLPLI	1.15	6/6	0/18
KFSQSWLYESRNKNSVA	EASTRES	QQYHRLPLS	-0.16	6/6	1/18
KLSMSMLMESRHKNNVA	ENSTRES	QHYHRLPLS	not detected	0/6	0/18
KHSQSWLYESRNKNSVA	GASTREN	QQYHRLPLS	0.02	6/6	2/18
MVSMNIYGEYRHRDNVA	HASMRED	QCYDRLPLS	-0.03	6/6	0/18
KSSQSYDYEDRNQNSVA	SASQREH	QQYHRLPLS	-0.02	6/6	0/18
SLAESVHMESRNKNSVA	DNTTRES	QHYDRLPLS	not detected	0/6	1/18
KIQWYPMENRGTIQAIA	EASTIYN	QQYMHLPLS	0.47	6/6	1/18
KVSQSFLYESRNKNAVA	HASTRES	QQYHRLPLS	0.02	6/6	0/18
KSSQSKLAESGNKNSVA	WASTRES	QQYHRLPLS	1.91	4/6	0/18
KSSQSVNYESSQKNSVA	WASTRIS	QQYHRLPLS	1.64	3/6	0/18
KSSQSVLGESRNKNSVA	RASTRES	QQYHRLPLS	2.16	4/6	0/18
KFMYSVLYEERNQNSVA	GASQRES	QQYHRLPLS	1.29	6/6	0/18
KLSQSHLYESRNKNSVA	QASTRES	QDYHRLPLS	-0.08	6/6	2/18
KFSQSVLYESRNKNSVA	NASTRES	QWYHRLPLS	2.29	6/6	1/18
MISNVMNTLTRYGNNVA	DLAEREE	QQYFRLPLS	0.70	6/6	1/18
IVSQLMLWGSHAKNSIA	EAVTRLN	QQYDRLPLF	1.60	6/6	0/18
KSSQSVLYESRNKNSVA	WASTRES	QQYHRLILS	not detected	0/6	0/18
KVMQSVLQGQRNKNSVA	EASTRER	QQYHRLPLS	1.05	6/6	0/18

Continued, with the values leading:

mean log10 Kd (nM)	detected	control signals	CDR-L1	CDR-L2	CDR-L3
-0.06	6/6	0/18	KLSQSYLYDSRNKNSVA	NASTRES	QQYHRLPLS
0.42	6/6	0/18	KSSQSWSYESRNKNSVA	GASTRES	QQYHRLPLS
1.13	6/6	2/18	TISQLHNMGTFAINSVA	QASLRNE	QQYDRLPLA
1.88	2/6	0/18	MISQMINMGSFAINSVA	QASIRCN	QQYDRLPLM
1.30	6/6	0/18	KLSLFYRVETRNKNSVA	DNSTRES	QDYDRLPLS
1.10	4/6	0/18	HMSMLTLMGMRQRNSVA	QMTTREN	QQYDRLPLM
0.67	6/6	0/18	KMSQSVLYESRNANSVA	KASTRES	YQYHRLPLS
-0.27	6/6	0/18	KLSQSVEVLSRNDNSVA	NASTREM	QQYHRLPLS
2.34	4/6	0/18	MISQLMNIGTFAINSVA	QASLRCN	QQYDRLPLM
0.21	6/6	0/18	KLSQSVPYESRNKNNVA	EASTRES	QQYHRLPLS
-0.19	6/6	0/18	TISSIMNHLTRNSNNVA	NMDMREE	QQYDRLPLS
0.15	6/6	1/18	HLTDTVMQGSYYKNSVA	QESTRAD	QQYHRLPLS
2.72	1/6	2/18	KLSMSMLMESRHKNNVA	ENSTREE	QHYHRLPLS
0.95	6/6	1/18	KVSMLHWYWSRNKNSVA	EASTREQ	QQYHRLPLS
0.30	6/6	1/18	SMAWQQGGYNQQEKAIA	EAATRTQ	QQYFRLPLT
0.25	6/6	3/18	KMSMSWPYDDLNKNSVA	NASTRMQ	QQYHRLPLS
-0.10	6/6	1/18	KLDQSVLYESRDKNSVA	HASTRED	QQYHRLPLS
not detected	0/6	0/18	KAQNSNEYESRMKNSVA	NASQRED	QQYHRLPLS
-0.26	6/6	1/18	KVSQSVLYESRNKNSVA	NASTREM	QQYHRLPLS
not detected	0/6	0/18	MISQLHNMGTFAINSVA	QASIRNA	QQYDRLPLT
0.78	6/6	0/18	QLLMATMQGSYNRNSVA	HAETRED	QSYHRLPLS
1.10	4/6	0/18	KSSQSDLYESRNKNSHA	QASTRES	QQYHRLPLS
0.18	6/6	4/18	SVRHPFQGENGRKASVA	NATIRDH	QQYFRLPLF
2.85	1/6	0/18	KSSQRVLYTSRNKNSVA	RASTRES	QQYHRLPLS
1.24	6/6	3/18	KSSQSVSYESDNMNSVA	WASTRES	QQYHRLPLS
0.12	6/6	1/18	KFSFSVQYESRNKNSVA	DASTREG	QQYHRMPLS
0.41	6/6	0/18	KSSQSGLYESRNKNSVA	EASTREA	QQYVDLPLS
2.36	6/6	0/18	HFDDLDVEWQANQSQVA	DHNEAQH	QQYARLPLS

Repeated from above, the 3 best binders with a signal in all replicates:

CDR-L1	CDR-L2	CDR-L3	mean log10 Kd (nM)	detected	control signals
KLSQSVEVLSRNDNSVA	NASTREM	QQYHRLPLS	-0.27	6/6	0/18
KVSQSVLYESRNKNSVA	NASTREM	QQYHRLPLS	-0.26	6/6	1/18
TISSIMNHLTRNSNNVA	NMDMREE	QQYDRLPLS	-0.19	6/6	0/18